## scFv variants of Ab-91 (heavy chain) against a SARS-CoV-2 spike peptide

From the AlphaSeq antibody data of Engelhart et al. 2022 (doi:10.1038/s41597-022-01779-4), copy in the FLAb collection.

Binding partner: SARS-CoV-2 spike HR2 peptide, sequence PDVDLGDISGINAS.

The variants keep the light chain, the linker and the frameworks of Ab-91 (scFv order VL, a (GGGGS)3 linker, VH).
VL: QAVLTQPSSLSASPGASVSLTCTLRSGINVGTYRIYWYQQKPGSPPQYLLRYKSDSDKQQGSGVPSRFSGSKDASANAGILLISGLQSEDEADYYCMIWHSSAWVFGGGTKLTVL
VH: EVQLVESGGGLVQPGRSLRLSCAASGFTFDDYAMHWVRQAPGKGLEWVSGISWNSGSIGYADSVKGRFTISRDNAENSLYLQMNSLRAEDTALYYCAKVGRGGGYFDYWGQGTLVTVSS

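The parent was found by panning a naive human phage display library on the peptide. AAYL51 was designed without a model: most single CDR substitutions and a random sample of double and triple ones. Affinity was read by AlphaSeq, a pooled yeast mating assay with surface-displayed partners. Pairs that bind mate more often; barcode pairs of the diploids are counted by sequencing. Scores were corrected for input abundance and mapped to Kd with protein pairs of known affinity run in the same pool. Each pool was mated in three replicate cultures.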

Changes read parent residue, position, new residue, counted from the first residue of the VH shown. Kd is apparent (estimated from mating counts) and averaged on the log scale over replicates with a signal. Smaller is tighter. A pair that was not seen in any replicate is written "not detected"; this usually means weak binding, but a binder can also be missed. Parent in this assay: reference entry 72 nM, copy in this library 7.5 nM. Empty control strains, which show no peptide, gave a signal in 21% of pairings with library AAYL51; the median was 34 µM and 95% of these signals were weaker than 1.8 µM. No background was subtracted. Also given: how often the same scFv was detected with the empty control strains.

changes,apparent Kd,detected,control signals
D30L+G59R+V64E,66 µM,1/3,0/9
I51D+S63V+Y105Q,not detected,0/3,0/9
Y60V+D62C+R101L,22 µM,1/3,5/9
V64P+R101Q+Y108T,not detected,0/3,0/9
A33C+G56Y+I58D,17 µM,2/3,1/9
D30P+K65S+G100S,not detected,0/3,0/9
A33N+S55W+R101F,730 µM,3/3,7/9
T28M+G56P,not detected,0/3,0/9
G50Q+W53V+I58T,not detected,0/3,2/9
N54M+G100H+D107S,not detected,0/3,2/9
D31Y+S52F+Y105K,not detected,0/3,5/9
S57P+G100V+Y105A,1.0 µM,1/3,1/9
D31H+Y32H+F106R,4.4 nM,3/3,3/9
Y32W+M34K+G102N,29 µM,3/3,3/9
F29R+R101N+Y105Q,not detected,0/3,4/9
F27G+T28L+V64A,not detected,0/3,0/9
F27G+F29Q,18 µM,1/3,0/9
M34Y+Y60A+G102H,88 µM,2/3,1/9
G26S+G56L+Y105M,9.8 µM,1/3,2/9
F29Q+D31H+S55L,not detected,0/3,1/9
D30E+S52P+G59F,58 µM,1/3,1/9
Y32L+G103M+G104D,190 µM,3/3,9/9
S55Q+G103E+F106Y,46 µM,3/3,1/9
F29L+G50M+I51N,1.9 mM,3/3,9/9
F29I+I51N+G59S,2.4 mM,2/3,5/9
F27I+N54V+S63F,14 µM,1/3,1/9
A61M+V64A+G104E,380 nM,3/3,4/9
S52A+S55F+G56S,26 µM,2/3,1/9
D30Y+H35P+D62W,not detected,0/3,0/9
S52G+S55N+G100A,not detected,0/3,0/9
D30G+H35N+G50N,not detected,0/3,0/9
Y60L+V64M,33 µM,3/3,2/9
A61D+S63K+G100I,not detected,0/3,2/9
I51Y+S52W+Y108Q,10 µM,1/3,1/9
H35I+I58V+F106E,not detected,0/3,2/9
M34F+W53Y+S55A,60 nM,3/3,2/9
S55M+F106T+D107K,51 µM,1/3,1/9
F27T+G104E+Y105Q,11 µM,2/3,2/9
N54G+A61E+V99D,not detected,0/3,0/9
D30S+V64M+K65S,4.8 nM,3/3,7/9
G26I+F29G+G104S,not detected,0/3,1/9
D30A+H35T+G59E,52 µM,3/3,3/9
G26E+M34Y+H35Y,30 µM,1/3,1/9
S52D+I58L+Y60T,not detected,0/3,0/9
N54C+Y60W+V64M,not detected,0/3,2/9
M34N+G104W+F106V,not detected,0/3,0/9
G56C+A61Y+Y108F,23 µM,3/3,6/9
W53H+S63V+G103F,22 µM,3/3,5/9
S52C+V99R+Y108V,350 µM,1/3,0/9
I58P+V64C+R101C,36 µM,1/3,4/9
M34E+A61I,190 µM,1/3,0/9
T28I+Y32R+S52P,not detected,0/3,0/9
H35K+A61E,3.0 µM,1/3,0/9
W53M+A61Q+R101T,80 nM,3/3,4/9
A33M+K65E+G102A,4.6 µM,2/3,3/9
G26A+F29G+D30V,not detected,0/3,1/9
A33Y+G103S+F106N,not detected,0/3,3/9
T28R+Y60S+D107G,1.4 µM,3/3,2/9
M34T+G56Y+V64G,not detected,0/3,3/9
S55E+D62S+G100Y,4.3 µM,2/3,0/9

The 9 strongest on average among those seen in every replicate, once more:

| changes | apparent Kd | detected | control signals |
|---|---|---|---|
| D31H+Y32H+F106R | 4.4 nM | 3/3 | 3/9 |
| D30S+V64M+K65S | 4.8 nM | 3/3 | 7/9 |
| M34F+W53Y+S55A | 60 nM | 3/3 | 2/9 |
| W53M+A61Q+R101T | 80 nM | 3/3 | 4/9 |
| A61M+V64A+G104E | 380 nM | 3/3 | 4/9 |
| T28R+Y60S+D107G | 1.4 µM | 3/3 | 2/9 |
| W53H+S63V+G103F | 22 µM | 3/3 | 5/9 |
| G56C+A61Y+Y108F | 23 µM | 3/3 | 6/9 |
| Y32W+M34K+G102N | 29 µM | 3/3 | 3/9 |